# Values of other authors, collected in US6114391A, “α-amino acid amides, preparation thereof and the therapeutical use thereof” (priority 1996, dated 2000).
# Conditions: literature data, in comparison with the present investigation; cited from earlier work
structure (smiles),measurement,value
CCCC(CCC)C(=O)[O-].[Na+] [sodium valproate],therapeutic index (in words),smaller therapeutic indexes
